From patent publication US11524945B2, “Compounds for treating ILK-mediated diseases” (The Cleveland Clinic Foundation, priority 2018, dated 2022)

Legend:
[1] = test system: MDA-MB-231 cells; experiment: Proliferation of triple negative breast cancer MDA-MB-231 cells; type: cell-based; settings: compounds at final 2 μM, FIG. 5 panel B
Method: (§1) […]. […] Cells were seeded at 20,000 cells/ml in 12 well plates in complete media. On day 3, the compounds were added at final 2 μM and the cells were counted every 3 days. […] Cells were seeded at 10,000 cells/ml in 12 well plates in complete media. The compounds were added at final 2 μM on day 2 and the cells were counted every 2 days.
(§2) Since ILK-dependent actin assembly regulates actin stress fibers, which in turn affects many cellular processes such as cell spreading, proliferation, and survival, we expected that Csbl-1 would interfere with ILK-dependent dysfunctional cellular behaviors. We therefore decided to examine the effect of Csbl-1 on MDA-MB-231— a triple negative breast cancer (TNBC) cell line. This cell line was chosen for the following reasons: (i) ILK is highly elevated in this metastatic cell line (see, FIG. 5a in Mongroo et al., 2004; FIG. 1E in Hsu et al., 2015; FIG. 1A in Qu et al., 2017)); (ii) it is a major type of TNBC cell line and has been extensively characterized (Holiday et al., 2011); (iii) currently there is no proven targeted therapy for TNBC (Denkert et al., 2017) so any effect of Csbl-1 would facilitate the development of therapeutics to treat this devastating disease. […].

[2] = test system: MCF10a cells; experiment: Proliferation of normal breast MCF10a cells; type: cell-based; settings: compounds at final 2 μM, FIG. 5 panel A
Method: as §1, §2

For `C#Cc1cccc(Nc2ncnc3cc(OCCOC)c(OCCOC)cc23)c1` [Erlotinib, reference compound], the “effect on proliferation of MDA-MB-231 cells” value [1] was “little effect” and the “effect on proliferation of MCF10a cells” value [2] was “significant toxicity”.
